The results in this text go back to US10745384B2, “Indazole derivatives as αv integrin antagonists” (BRISTOL-MYERS SQUIBB COMPANY, priority 2016, dated 2020).

Protein sequences, listed by entry. Tags and fused reporters are not part of them. Residues count along the entry.
UniProt P06756, 31-992 limits assumed: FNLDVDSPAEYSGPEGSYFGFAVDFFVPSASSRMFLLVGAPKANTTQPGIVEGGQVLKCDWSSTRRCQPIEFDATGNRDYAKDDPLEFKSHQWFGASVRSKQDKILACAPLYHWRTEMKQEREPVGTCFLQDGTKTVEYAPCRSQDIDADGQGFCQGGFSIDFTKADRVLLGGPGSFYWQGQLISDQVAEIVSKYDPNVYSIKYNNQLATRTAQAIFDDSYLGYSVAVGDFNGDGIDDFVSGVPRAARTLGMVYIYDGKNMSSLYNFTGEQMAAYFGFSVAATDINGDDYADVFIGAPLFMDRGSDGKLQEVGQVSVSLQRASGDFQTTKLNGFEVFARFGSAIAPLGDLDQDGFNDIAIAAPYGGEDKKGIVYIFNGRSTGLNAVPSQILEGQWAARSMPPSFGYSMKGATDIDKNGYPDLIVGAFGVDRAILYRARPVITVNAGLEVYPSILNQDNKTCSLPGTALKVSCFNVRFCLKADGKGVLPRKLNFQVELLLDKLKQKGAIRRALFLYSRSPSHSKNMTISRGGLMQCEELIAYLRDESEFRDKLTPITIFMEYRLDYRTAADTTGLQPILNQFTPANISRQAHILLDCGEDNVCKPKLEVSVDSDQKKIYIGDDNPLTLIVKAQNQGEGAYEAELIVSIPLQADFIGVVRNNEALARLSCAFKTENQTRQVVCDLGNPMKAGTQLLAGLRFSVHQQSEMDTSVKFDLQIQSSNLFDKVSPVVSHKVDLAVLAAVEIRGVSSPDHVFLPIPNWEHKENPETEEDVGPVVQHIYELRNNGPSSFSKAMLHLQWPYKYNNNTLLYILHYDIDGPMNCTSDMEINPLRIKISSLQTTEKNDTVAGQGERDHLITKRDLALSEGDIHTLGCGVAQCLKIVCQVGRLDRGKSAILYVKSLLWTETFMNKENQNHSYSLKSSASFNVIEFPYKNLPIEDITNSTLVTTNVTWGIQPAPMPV
UniProt P18564, 22-707 limits assumed: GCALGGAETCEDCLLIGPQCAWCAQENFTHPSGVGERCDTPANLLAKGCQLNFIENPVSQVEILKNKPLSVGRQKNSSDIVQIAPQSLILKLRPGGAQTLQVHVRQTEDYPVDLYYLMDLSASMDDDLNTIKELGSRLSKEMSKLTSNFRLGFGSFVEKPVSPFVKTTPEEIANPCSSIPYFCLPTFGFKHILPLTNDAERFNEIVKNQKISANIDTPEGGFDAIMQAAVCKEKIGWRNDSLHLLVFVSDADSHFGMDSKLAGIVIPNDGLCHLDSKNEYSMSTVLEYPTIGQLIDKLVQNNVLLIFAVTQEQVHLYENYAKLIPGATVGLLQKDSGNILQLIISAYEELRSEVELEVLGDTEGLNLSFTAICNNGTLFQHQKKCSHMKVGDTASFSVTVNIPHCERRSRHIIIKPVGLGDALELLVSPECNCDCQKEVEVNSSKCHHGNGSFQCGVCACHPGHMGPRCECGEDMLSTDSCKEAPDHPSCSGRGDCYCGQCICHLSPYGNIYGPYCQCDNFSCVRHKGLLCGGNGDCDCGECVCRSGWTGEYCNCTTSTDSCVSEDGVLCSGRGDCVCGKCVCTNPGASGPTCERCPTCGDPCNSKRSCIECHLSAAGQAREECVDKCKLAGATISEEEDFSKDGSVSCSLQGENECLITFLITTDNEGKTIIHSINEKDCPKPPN
UniProt P05106, 27-718 limits assumed: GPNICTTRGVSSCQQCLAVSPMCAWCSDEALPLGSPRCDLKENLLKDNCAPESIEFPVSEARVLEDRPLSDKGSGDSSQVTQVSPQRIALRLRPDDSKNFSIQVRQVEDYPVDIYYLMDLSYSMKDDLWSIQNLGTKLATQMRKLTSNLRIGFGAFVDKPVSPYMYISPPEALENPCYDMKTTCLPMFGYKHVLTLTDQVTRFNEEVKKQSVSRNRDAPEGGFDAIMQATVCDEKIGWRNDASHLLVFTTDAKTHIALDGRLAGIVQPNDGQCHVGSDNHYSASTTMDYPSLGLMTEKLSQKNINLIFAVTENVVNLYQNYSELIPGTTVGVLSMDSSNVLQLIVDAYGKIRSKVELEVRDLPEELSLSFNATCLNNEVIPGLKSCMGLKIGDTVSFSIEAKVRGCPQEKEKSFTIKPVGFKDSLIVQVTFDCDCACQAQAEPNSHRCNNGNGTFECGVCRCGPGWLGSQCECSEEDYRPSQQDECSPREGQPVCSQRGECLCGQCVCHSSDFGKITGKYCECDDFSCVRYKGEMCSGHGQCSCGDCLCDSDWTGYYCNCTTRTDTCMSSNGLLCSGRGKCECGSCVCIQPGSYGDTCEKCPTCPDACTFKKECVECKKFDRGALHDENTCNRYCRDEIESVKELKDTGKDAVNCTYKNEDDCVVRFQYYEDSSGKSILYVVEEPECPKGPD
UniProt P26012, 43-684 limits assumed: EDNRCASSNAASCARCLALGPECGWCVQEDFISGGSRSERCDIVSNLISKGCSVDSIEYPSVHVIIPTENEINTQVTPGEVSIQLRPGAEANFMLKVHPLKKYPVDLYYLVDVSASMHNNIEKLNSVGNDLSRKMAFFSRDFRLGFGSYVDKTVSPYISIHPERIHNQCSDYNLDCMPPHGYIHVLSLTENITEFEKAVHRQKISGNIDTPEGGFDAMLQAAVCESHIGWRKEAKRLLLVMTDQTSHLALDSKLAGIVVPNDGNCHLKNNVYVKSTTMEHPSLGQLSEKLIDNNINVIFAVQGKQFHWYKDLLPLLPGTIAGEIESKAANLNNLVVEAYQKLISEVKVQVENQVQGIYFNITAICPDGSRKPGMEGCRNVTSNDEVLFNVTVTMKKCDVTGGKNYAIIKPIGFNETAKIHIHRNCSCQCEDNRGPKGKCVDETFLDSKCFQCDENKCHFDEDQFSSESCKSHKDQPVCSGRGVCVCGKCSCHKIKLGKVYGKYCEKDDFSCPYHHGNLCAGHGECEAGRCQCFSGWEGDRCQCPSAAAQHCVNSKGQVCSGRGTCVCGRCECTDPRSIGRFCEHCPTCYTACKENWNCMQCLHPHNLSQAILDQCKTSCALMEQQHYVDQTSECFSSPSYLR
UniProt P18084, 24-719 limits assumed: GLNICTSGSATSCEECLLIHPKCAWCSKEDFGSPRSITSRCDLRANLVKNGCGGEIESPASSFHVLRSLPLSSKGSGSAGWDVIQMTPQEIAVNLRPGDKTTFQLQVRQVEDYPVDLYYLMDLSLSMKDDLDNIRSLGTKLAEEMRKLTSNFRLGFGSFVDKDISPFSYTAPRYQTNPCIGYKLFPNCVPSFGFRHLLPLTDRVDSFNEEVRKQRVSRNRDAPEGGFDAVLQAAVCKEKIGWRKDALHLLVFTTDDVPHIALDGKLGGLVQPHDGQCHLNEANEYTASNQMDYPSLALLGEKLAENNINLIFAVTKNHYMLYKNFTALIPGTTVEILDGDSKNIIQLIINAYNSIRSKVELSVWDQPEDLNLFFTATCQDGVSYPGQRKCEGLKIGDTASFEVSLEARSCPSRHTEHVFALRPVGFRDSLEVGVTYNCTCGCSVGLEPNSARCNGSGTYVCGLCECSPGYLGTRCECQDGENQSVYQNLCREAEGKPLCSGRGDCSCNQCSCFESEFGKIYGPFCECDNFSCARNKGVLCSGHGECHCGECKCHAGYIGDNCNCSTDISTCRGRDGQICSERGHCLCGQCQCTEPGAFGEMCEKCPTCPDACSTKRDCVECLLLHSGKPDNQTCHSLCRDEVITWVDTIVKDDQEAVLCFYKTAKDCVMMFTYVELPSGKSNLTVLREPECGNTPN
UniProt P05556, 21-728 limits assumed: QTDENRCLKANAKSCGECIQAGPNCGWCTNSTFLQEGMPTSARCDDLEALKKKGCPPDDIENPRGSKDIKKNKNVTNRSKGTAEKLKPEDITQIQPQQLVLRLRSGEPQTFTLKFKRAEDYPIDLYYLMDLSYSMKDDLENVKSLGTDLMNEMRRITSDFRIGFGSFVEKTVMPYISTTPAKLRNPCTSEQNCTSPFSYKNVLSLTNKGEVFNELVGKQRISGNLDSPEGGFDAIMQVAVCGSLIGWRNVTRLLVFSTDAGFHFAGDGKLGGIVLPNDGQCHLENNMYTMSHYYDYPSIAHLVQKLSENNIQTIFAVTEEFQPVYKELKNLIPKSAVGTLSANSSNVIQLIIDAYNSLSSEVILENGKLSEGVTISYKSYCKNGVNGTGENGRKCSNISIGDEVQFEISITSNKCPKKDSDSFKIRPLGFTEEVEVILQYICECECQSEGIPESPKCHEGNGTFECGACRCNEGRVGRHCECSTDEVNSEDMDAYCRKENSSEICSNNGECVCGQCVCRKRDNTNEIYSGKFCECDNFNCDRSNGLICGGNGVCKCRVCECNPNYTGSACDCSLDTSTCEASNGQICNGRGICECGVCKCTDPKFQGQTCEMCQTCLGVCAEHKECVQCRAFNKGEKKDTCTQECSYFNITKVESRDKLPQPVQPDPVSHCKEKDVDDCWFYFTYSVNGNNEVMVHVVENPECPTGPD

In one assay the target is human αVβ6 (Homo sapiens, UniProt P06756+P18564). The assay can be described thus: human αVβ6 HTRF binding assay. Conditions: read-out: Human αVβ6 IC50, recombinant human αVβ6 integrin, FITC-conjugated fibronectin. Here is the method:
(§1) All binding assays used the HTRF (homogeneous time resolved fluorescence) technology from Cisbio International, therefore all assays are described as HTRF binding assays. The assay results for the Examples are listed above together with the characterization data. The HTRF binding assays are established for the following integrins: human αVβ6, human αVβ1, human αVβ3, human αVβ5, and human αVβ8. All assays used the following assay buffer: 20 mM Tris, pH 7.4, 1 mM MgCl2, 1 mM MnCl2, 0.01% Tween 20, and 0.01% BSA. Alternatively, a SPA-based assay was used for evaluation of receptor binding.
(§2) The following describes the components and a representative procedure for the human αVβ6 HTRF binding assay: Recombinant human αVβ6 Integrin (R & D systems, 3817-AV) was biotinylated. Biotinylated human αVβ6 Integrin was added to assay vessel at a final concentration of 1.25 nM. FITC-conjugated fibronectin (Cytoskeleton, FNR02) was then added at the final concentration of 5 nM. The mixture was centrifuged at 600 rpm for three minutes using Thermo Fisher Heraeus Multifuge X3 centrifuge and then incubated at room temperature for an hour. […] The resulting mixture was centrifuged at 600 rpm for three minutes using Thermo Fisher Heraeus Multifuge X3 centrifuge and then incubated at room temperature overnight in dark before reading HTRF signals. […]

A further assay addresses human αVβ3 (Homo sapiens, UniProt P05106+P06756). Put plainly: human αVβ3 HTRF binding assay. The settings on record: read-out: Human αVβ3 IC50. The procedure: as §1, §2
(TR-FRET usually uses a lanthanide donor and a delayed reading to cut background.)

The next assay deals with human αVβ8 (Homo sapiens, UniProt P06756+P26012). Put plainly: human αVβ8 HTRF binding assay. The settings on record: read-out: Human αVβ8 IC50. The procedure:
as §1, §2

The next assay addresses human αVβ5 (Homo sapiens, UniProt P06756+P18084). The assay can be described thus: human αVβ5 HTRF binding assay. Conditions: read-out: Human αVβ5 IC50. The procedure: as §1, §2
The target in another assay is human αVβ1 (Homo sapiens, UniProt P05556+P06756). Put plainly: human αVβ1 HTRF binding assay. The settings on record: read-out: Human αVβ1 IC50. Here is the method: as §1
The following describes the components and a representative procedure for the human αVβ6 HTRF binding assay: Recombinant human αVβ6 Integrin (R & D systems, 3817-AV) was biotinylated. […] The resulting mixture was centrifuged at 600 rpm for three minutes using Thermo Fisher Heraeus Multifuge X3 centrifuge and then incubated at room temperature overnight in dark before reading HTRF signals.
The SPA-based assay was carried out according to the protocol and procedures similar to the ones described in the following reference with appropriate modifications to agents and ligands which are readily understood by one skilled in the art: Pachter J A, Zhang R, Mayer-Ezell R., “Scintillation proximity assay to measure binding of soluble fibronectin to antibody-captured αVβ1 integrin” Anal Biochem. 1995 Sep. […]

In general, IC50 refers to the concentration needed to halve the response being measured.

Each structure is given as a SMILES string.

For `COc1ccc([C@H](CC(=O)O)n2cc3ccc(OCCc4ccc5c(n4)NCCC5)cc3n2)cn1`, the half-inhibitory concentration (IC50) was 1.2 nM at human αVβ6; 2.4 nM on human αVβ3; 2300 nM on human αVβ8; 1 nM at human αVβ5; 2300 nM on human αVβ1.
